Here are results for one compound from patent US10189859B2, “Derivatives of 6-(2,3-dichlorophenyl)-1,2,4-triazin-5-amine” (Nektar Therapeutics, priority 2013, dated 2019).

Sequences of proteins named here, by UniProt entry; tags and fusion partners are left off.
UniProt Q15858, whole entry: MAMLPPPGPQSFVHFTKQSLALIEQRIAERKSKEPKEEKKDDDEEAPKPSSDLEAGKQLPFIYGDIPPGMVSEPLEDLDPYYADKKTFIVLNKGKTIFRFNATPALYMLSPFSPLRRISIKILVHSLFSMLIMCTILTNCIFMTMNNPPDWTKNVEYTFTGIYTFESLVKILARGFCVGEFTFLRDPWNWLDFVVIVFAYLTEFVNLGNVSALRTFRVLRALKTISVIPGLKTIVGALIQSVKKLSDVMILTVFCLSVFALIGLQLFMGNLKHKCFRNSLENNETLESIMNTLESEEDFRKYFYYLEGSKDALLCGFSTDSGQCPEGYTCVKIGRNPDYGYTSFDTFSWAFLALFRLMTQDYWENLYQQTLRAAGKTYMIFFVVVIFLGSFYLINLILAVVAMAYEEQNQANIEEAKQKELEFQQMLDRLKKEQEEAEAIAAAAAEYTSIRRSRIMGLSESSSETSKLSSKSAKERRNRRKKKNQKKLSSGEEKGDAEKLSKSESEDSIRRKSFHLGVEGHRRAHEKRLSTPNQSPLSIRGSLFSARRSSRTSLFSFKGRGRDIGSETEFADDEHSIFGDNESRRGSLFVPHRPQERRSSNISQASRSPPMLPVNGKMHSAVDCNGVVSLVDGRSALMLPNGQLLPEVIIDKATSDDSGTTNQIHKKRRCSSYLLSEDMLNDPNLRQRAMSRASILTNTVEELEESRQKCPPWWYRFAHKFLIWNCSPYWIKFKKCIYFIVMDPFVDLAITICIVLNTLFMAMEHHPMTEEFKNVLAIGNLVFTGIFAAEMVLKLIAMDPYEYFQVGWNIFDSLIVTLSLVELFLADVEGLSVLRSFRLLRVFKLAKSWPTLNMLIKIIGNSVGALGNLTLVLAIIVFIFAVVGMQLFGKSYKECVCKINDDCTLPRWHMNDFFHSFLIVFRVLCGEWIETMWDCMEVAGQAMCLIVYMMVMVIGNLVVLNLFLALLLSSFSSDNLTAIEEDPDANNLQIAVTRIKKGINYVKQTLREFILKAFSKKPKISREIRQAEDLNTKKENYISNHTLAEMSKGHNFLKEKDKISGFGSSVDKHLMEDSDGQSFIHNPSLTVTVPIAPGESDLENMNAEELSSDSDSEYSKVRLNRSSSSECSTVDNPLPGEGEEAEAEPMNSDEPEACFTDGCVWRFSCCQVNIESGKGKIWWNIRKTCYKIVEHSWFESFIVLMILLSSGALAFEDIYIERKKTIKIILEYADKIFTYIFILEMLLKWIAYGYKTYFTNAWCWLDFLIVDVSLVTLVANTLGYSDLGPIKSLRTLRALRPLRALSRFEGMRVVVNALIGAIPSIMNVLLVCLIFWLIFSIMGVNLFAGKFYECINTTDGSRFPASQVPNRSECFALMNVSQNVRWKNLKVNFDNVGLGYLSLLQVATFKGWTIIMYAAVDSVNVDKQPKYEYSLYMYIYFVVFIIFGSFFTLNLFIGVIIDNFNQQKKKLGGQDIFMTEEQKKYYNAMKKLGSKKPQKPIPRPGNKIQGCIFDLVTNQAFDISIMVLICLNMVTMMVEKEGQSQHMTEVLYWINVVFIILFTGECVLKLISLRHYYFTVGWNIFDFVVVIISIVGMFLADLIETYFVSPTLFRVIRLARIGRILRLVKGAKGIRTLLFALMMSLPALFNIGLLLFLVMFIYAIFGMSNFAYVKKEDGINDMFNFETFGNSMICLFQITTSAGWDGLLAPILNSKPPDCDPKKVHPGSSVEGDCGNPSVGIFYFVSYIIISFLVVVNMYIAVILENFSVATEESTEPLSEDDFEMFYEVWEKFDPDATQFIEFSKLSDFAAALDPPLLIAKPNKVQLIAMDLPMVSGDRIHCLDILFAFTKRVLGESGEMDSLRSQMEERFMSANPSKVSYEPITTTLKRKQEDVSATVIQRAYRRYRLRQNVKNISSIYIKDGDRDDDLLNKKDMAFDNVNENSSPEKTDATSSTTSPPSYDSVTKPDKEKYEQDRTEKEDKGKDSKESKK

The test concerns the target Nav1.7 sodium channels (human SCN9A gene) (Homo sapiens (Human), UniProt Q15858). The test can be described thus: Automated patch clamp (IonWorks Barracuda) of Nav1.7 stably expressed in CHO cells. In kind it is cell-based. The method, then:
The potencies of the compounds provided herein to block specific Na+ channels was measured using automated patch clamp electrophysiologically of Nav1.7 sodium channels (human SCN9A gene) stably expressed in CHO cells using the IonWorks™ Barracuda system. Currents were measured from the whole cell patch configuration. From a holding potential of −90 mV, membranes were subjected to a 200 ms pre-pulse to −120 mV, then pulsed to 0 mV to measure blockade of the tonic (resting) state. Inactivated state block was elicited by repolarization to −100 mV (20 ms pulse duration), followed by depolarization to 0 mV (20 ms pulse duration). Peak inward Na+ currents were measured in the presence of vehicle or various concentrations of the test compound to determine the percent block of current. Concentration-response relationships were used to calculate IC50 values for the illustrative compounds.

Like-named read-outs stand apart in the source and are kept apart here.

Consider `COC[C@@H](O)CO[C@H]1CCN(c2nnc(-c3cccc(Cl)c3Cl)c(N)n2)C1` [Compound 71, (R)-1-(((S)-1-(5-Amino-6-(2,3-dichlorophenyl)-1,2,4-triazin-3-yl)pyrrolidin-3-yl)oxy)-3-methoxypropan-2-ol], for which the IC50 – broadly, the midpoint of a concentration-inhibition curve – (inactivated state block, read-out: Inactivated state IC50) was 187 µM and the half-inhibitory concentration (IC50) (tonic (resting) state block, read-out: Tonic state IC50) is above 200 µM.
